Tested on: salmon sperm DNA
Settings: 25 mM MOPS pH 6.5

Row | SMILES | DNA binding activity (displacement of Sybr-green DNA intercalator)
1 | CC1=NN(c2ccc(Cl)c(C(=O)O)c2)C(=O)/C1=C\c1ccc(-c2ccc(Cl)c(C(=O)OCc3ccccc3)c2)o1 [Compound 22] | DNA binding activity above their IC50 value concentrations
2 | CC1=NN(c2ccc(Cl)c(C(=O)O)c2)C(=O)/C1=C\c1ccc(-c2ccc(Cl)c(C(=O)OCc3ccccc3Cl)c2)o1 [Compound 24] | DNA binding activity above their IC50 value concentrations
3 | CC1=NN(c2cccc(C(=O)O)c2)C(=O)/C1=C\c1ccc(-c2ccc(Cl)c(C(=O)NCc3ccc(F)cc3)c2)o1 [Compound 34a, (Z)-3-(4-((5-(4-Chloro-3-((4-fluorobenzyl)carbamoyl)phenyl)furan-2-yl)methylene)-3-methyl-5-oxo-4,5-dihydro-1H-pyrazol-1-yl)-benzoic Acid] | no significant DNA binding activity
4 | CC1=NN(c2cccc(C(=O)O)c2)C(=O)/C1=C\c1ccc(-c2ccc(Cl)c(C(=O)NCC3CC3)c2)o1 [Compound 34d, (Z)-3-(4-((5-(4-Chloro-3-((cyclopropylmethyl)carbamoyl)phenyl)-furan-2-yl)methylene)-3-methyl-5-oxo-4,5-dihydro-1H-pyrazol-1-yl)benzoic Acid] | no significant DNA binding activity
5 | CC1=NN(c2ccc(C(=O)O)cc2)C(=O)/C1=C\c1ccc(-c2ccc(Cl)c(C(=O)NCc3ccc(F)cc3)c2)o1 [Compound 34i, (Z)-4-(4-((5-(4-Chloro-3-((4-fluorobenzyl)carbamoyl)phenyl)-furan-2-yl)methylene)-3-methyl-5-oxo-4,5-dihydro-1H-pyrazol-1-yl)benzoic Acid] | no significant DNA binding activity
6 | CC1=NN(c2ccc(C(=O)O)cc2)C(=O)/C1=C\c1ccc(-c2ccc(Cl)c(C(=O)NCC3CC3)c2)o1 [Compound 34k, (Z)-4-(4-((5-(4-Chloro-3-((cyclopropylmethyl)carbamoyl)phenyl)-furan-2-yl)methylene)-3-methyl-5-oxo-4,5-dihydro-1H-pyrazol-1-yl)benzoic Acid] | no significant DNA binding activity
7 | CC1=NN(c2ccc(C(=O)O)cc2)C(=O)/C1=C\c1ccc(-c2ccc(C(=O)NCc3ccc(F)cc3)cc2)o1 [Compound 39c, (Z)-4-(4-((5-(4-((4-Fluorobenzyl)carbamoyl)phenyl)furan-2-yl)-methylene)-3-methyl-5-oxo-4,5-dihydro-1H-pyrazol-1-yl)benzoic Acid] | no significant DNA binding activity

From article PMC7339037 (Journal of medicinal chemistry, 2017)
